Source: ChEMBL document CHEMBL1136242, “Arachidonylsulfonyl derivatives as cannabinoid CB1 receptor and fatty acid amide hydrolase inhibitors” (Bioorg Med Chem Lett, 2003)

Protein sequences, listed by entry. Tags and fused reporters are not part of them.
UniProt P47746, whole entry: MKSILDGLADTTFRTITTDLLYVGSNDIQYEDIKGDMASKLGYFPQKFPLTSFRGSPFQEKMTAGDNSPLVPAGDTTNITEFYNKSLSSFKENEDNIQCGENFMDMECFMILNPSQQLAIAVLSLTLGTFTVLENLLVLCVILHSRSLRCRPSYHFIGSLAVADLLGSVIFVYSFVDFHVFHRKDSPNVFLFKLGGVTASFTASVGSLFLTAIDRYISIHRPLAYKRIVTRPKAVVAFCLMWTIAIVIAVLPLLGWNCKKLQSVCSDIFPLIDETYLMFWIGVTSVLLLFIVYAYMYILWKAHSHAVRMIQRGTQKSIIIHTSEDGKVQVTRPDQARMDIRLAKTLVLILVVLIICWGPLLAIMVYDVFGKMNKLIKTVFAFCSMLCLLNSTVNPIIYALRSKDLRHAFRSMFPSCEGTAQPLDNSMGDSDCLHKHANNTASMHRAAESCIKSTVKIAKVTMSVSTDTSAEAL

Target: Cannabinoid receptor 1 (Mus musculus, UniProt P47746)
Assay: Binding affinity towards Cannabinoid receptor 1 was determined using [3H]-CP- cannabinoid as radioligand with mouse brain membrane

Compound: CCCCC/C=C\C/C=C\C/C=C\C/C=C\CCCC(=O)NCCO [ANANDAMIDE]
- IC50: 12 µM
